Experimental data as given in patent US12409171B2, “Pharmaceutically active pyrazolo-pyridone modulators of DCN1/2-mediated cullin neddylation” (UNIVERSITY OF KENTUCKY RESEARCH FOUNDATION, priority 2019, dated 2025).
Read-outs that look alike come from different tables or passages of the source.

Sequences of proteins named here, by UniProt entry; tags and fusion partners are left off.
UniProt Q96GG9, whole entry: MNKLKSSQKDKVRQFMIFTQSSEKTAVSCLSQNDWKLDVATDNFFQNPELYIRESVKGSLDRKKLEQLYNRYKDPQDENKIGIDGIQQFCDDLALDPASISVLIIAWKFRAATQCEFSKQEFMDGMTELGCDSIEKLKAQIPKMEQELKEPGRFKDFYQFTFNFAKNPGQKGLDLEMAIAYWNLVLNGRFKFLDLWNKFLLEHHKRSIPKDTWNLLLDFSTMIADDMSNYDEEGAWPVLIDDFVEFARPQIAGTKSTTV

Target: DCN1 (Homo sapiens (Human), UniProt Q96GG9)
Test: TR-FRET binding assay (biotin-DCN1 / Ac-UBE2M12-AlexaFluor488)
Settings: diastereomer on branched alkyl group
[1] = read-out: IC50 (μM) (TR-FRET), TLC-down diastereomer, TLC-down
[2] = read-out: IC50 (μM) (TR-FRET), TLC-up diastereomer, TLC-up

Row | Compound | IC50 [1] [µM] | IC50 [2] [µM]
1 | CCC(C)n1nc(C)c2c1NC(=O)[C@@H](NC(=O)c1cccc(C)c1)[C@H]2c1ccc(F)cc1 (single isomer, unassigned) | 0.6 | 0.7
2 | Cc1cccc(C(=O)N[C@@H]2C(=O)Nc3c(c(C)nn3C(C)C(F)(F)F)[C@@H]2c2ccc(F)cc2)c1 (single isomer, unassigned) | 0.9 | 2.3
3 | CCC(C)n1nc(C)c2c1N(CC)C(=O)[C@@H](NC(=O)c1cccc(C)c1)[C@H]2c1ccc(F)cc1 (single isomer, unassigned) | 0.5 | 1.2
4 | Cc1cccc(C(=O)N[C@@H]2C(=O)Nc3c(c(C)nn3C(C)C3CC3)[C@@H]2c2ccc(F)cc2)c1 (single isomer, unassigned) | 0.3 | 0.7
